Source: article PMC7801380, “Development of phenotypic assays for identifying novel blockers of L-type calcium channels in neurons” (Scientific Reports, 2021)

Chains of the proteins cited; added tags and fusions are not shown. Residues count along the entry.
UniProt Q13936, 1-2138 isoform Q13936-12: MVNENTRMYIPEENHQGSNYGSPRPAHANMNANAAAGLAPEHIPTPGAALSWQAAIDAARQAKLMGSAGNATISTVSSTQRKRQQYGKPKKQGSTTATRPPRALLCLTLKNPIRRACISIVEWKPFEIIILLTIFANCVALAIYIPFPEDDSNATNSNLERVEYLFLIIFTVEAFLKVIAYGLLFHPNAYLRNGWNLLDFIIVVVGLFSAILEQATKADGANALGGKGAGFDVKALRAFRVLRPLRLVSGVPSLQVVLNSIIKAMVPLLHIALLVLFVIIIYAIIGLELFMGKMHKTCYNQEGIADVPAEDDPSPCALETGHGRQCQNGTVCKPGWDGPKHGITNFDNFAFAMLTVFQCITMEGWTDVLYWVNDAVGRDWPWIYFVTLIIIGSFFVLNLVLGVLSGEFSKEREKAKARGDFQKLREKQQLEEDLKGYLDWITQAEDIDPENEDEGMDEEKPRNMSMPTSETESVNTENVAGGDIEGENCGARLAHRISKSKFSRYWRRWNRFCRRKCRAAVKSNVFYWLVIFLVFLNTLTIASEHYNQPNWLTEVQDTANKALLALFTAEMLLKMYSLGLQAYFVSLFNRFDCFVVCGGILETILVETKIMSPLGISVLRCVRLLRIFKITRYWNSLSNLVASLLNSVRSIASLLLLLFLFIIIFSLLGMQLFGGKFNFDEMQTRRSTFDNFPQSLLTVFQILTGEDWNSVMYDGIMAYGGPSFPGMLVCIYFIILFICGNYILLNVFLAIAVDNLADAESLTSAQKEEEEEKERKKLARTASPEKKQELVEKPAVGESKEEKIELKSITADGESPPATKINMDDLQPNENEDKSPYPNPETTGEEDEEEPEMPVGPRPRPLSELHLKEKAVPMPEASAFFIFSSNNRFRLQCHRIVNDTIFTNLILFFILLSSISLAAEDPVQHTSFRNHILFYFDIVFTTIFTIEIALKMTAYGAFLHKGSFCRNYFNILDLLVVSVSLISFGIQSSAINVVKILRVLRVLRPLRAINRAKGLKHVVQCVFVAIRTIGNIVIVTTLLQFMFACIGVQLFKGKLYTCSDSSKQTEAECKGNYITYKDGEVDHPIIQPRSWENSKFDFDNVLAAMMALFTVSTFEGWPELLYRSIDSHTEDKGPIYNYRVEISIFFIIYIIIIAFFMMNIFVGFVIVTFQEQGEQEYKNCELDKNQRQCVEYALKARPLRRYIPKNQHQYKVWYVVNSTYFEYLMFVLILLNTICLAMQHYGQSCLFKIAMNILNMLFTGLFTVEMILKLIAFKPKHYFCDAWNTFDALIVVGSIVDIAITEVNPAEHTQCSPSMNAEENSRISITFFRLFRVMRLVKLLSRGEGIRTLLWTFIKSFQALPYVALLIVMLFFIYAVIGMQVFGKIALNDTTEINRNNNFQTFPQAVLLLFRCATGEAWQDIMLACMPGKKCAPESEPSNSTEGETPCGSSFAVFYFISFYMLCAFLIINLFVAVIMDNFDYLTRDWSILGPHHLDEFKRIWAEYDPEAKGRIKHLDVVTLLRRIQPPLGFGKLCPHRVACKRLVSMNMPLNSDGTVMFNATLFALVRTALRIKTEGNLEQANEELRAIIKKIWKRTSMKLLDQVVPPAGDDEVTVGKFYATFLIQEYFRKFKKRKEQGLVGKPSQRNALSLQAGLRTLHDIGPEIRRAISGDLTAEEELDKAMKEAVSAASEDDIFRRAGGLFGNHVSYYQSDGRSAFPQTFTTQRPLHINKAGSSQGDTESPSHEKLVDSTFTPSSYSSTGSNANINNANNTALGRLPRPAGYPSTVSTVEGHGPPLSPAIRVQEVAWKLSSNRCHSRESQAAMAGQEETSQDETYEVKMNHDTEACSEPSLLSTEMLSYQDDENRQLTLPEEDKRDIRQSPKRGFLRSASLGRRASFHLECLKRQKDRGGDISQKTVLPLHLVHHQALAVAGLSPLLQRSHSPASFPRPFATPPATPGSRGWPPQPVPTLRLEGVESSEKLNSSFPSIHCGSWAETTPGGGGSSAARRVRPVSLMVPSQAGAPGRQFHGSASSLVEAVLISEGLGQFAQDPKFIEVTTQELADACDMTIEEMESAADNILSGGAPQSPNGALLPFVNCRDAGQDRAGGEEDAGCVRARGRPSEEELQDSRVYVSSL

Key:
[1] = biological target: T1, CaV1.2 (Homo sapiens, UniProt Q13936); assay: cell-based
[2] = biological target: T1, CaV1.2

O=C(Nc1ccc([N+](=O)[O-])cc1Cl)c1cc(Cl)ccc1O [Niclosamide] was tested, and the IC50 [1] was 715 ± 49.2 nM, the “maximal % inhibition (efficacy), CaV1.2 in CHO cells” value ([2]; -50/-20 mV, 300 nM Bay K8644) was 76.1% and the “Lower potency at CaV1.2 in CHO cells than for neuronal LTCCs” value ([2]; CHO CaV1.2 vs rat cortical neurons) was “~ fourfold”.
